Measured values taken from PubChem BioAssay AID1778 (Sanford-Burnham Center for Chemical Genomics, 2009).
The other results are listed elsewhere or left out. Entries with a potency or affinity are not part of this list. Activity calls are given as the source filed them. Rule as the data show it: active = inhibition above about 50%; inactive = the rest.

The chains behind the UniProt entries cited, without tags or fusion partners. Where a name states a change or a piece, a line headed by the entry shows the natural chain unless it says otherwise.
UniProt P41145: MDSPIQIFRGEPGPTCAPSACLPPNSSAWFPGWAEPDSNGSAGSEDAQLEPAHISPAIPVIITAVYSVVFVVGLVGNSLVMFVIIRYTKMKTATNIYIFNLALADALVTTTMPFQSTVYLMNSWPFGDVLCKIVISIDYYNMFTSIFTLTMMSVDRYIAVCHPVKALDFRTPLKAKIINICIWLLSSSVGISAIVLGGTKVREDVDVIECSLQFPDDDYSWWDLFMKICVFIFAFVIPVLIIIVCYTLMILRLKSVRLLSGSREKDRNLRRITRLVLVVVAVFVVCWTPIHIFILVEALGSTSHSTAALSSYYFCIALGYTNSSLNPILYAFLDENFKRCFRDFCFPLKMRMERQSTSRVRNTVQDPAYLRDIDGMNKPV

Biological target: Kappa-type opioid receptor (Homo sapiens) (UniProt P41145)
Test: KOR antagonists, beta-arrestin recruitment, cell-based, luminescence, uHTS (AID 1778)
Settings: antagonist mode, at 10 µM, hits give high values

SMILES | inhibition
CCOC(=O)Nc1cccc([As](=O)(O)O)c1 | inactive: 4.8%
NNC(=O)Cn1c(-c2ccccn2)nc2ccccc21 | inactive: -1.6%
COc1cc(NC(=O)[C@H](C)NC(=O)N2CCn3c2nc2ccccc23)cc(OC)c1 | inactive: -12.1%
O=C(Cn1c(CCCO)nc2ccccc21)Nc1ccccc1-c1ccccc1 | inactive: -27.8%
C/C(=N\NC(=O)Cn1c(C)nc2ccccc21)c1cccs1 | inactive: 27.4%
CC(C)(C)NC(=O)Cn1c(SCC(=O)NC2CCCCC2)nc2ccccc21 | inactive: 1.3%
CCCNC(=O)Cn1c(=O)n(C)c2ccccc21 | inactive: 22.6%
CC1CN(Cc2nc3c(c(=O)n(C)c(=O)n3C)n2CCN2CCOCC2)CC(C)O1 (stereo unspecified) | inactive: -19.8%
CCNC(=S)N1CCn2c(nc3ccccc32)C1 | inactive: -5.2%
Cc1cc(SC(NC=O)C(Cl)(Cl)Cl)ncn1 (stereo unspecified) | inactive: -28.2%
CCc1nc2ccccc2n1CC(=O)N1CCN(S(=O)(=O)c2cccc(C(F)(F)F)c2)CC1 | inactive: -10.7%
COc1ccccc1C(=O)OCCNC(=O)Cn1cnc2c1c(=O)n(C)c(=O)n2C | inactive: -2.7%
Cn1c(=O)n(Cc2ccccc2)c(=O)c2c1nc1n2CCN1Cc1ccco1 | inactive: 13.9%
Cn1c(=O)c2c(ncn2CC(=O)N/N=C/c2ccc(Br)s2)n(C)c1=O | inactive: -22.6%
COCCN1CCn2c(nc3cc(NC(=O)c4ccc(OC)cc4)ccc32)C1 | inactive: -21.2%
CCC(C)c1ccc2oc(-c3ccc(NC(=O)Cn4cnc5c(=O)n(C)c(=O)n(C)c54)cc3)nc2c1 (stereo unspecified) | inactive: -22.3%
CCS(=O)(=O)c1nc2ccccc2n1CC(=O)N1CCOCC1 | inactive: -27.5%
CCC(=O)Nc1nnc(/C=C/c2ccccc2)s1 | inactive: -1.5%
O=C(Cn1c(CC(=O)N2CCOCC2)nc2ccccc21)Nc1ccc2c(c1)OC(F)(F)O2 | inactive: 3.9%
O=[N+]([O-])c1ccc(Nc2ccc(Oc3ccc([N+](=O)[O-])cc3[N+](=O)[O-])cc2)c([N+](=O)[O-])c1 | inactive: 10.4%
N=c1n(CCN2CCCCC2)c2ccccc2n1CC(=O)c1cccs1 | inactive: -3.4%
Cn1c(=O)c2c(ncn2CC(=O)N/N=C/C=C\c2ccccc2[N+](=O)[O-])n(C)c1=O | inactive: 19.5%
COP1(=S)c2c(C)nn(CCC#N)c2N=C(c2ccc(F)cc2)N1C (stereo unspecified) | inactive: -82.6%

SMILES | inhibition
Cc1ccc(C)c(S(=O)(=O)N2CCN(C(=O)Cn3cnc4c3c(=O)n(C)c(=O)n4C)CC2)c1 | inactive: 7%
O=C(Nc1ccccc1C(F)(F)F)N1CCC(n2c(=O)[nH]c3ccccc32)CC1 | inactive: -27.7%
N#CCC(=O)N/N=C\c1cccc(OC/C=C/c2ccccc2)c1 | inactive: -8.4%
CCc1cccc(C)c1N(C(=O)Cn1c(COC)nc2ccccc21)C(C)COC (stereo unspecified) | inactive: 0.2%
O=[N+]([O-])c1ccc2c(c1)nc1n2CCN(c2ccccc2)C1 | inactive: 41.2%
O=C(c1ccccc1)N1CCn2c(nc3ccccc32)C1 | inactive: 1.5%
C=CCn1c(=O)c2c(nc3n2CCN3c2cccc(Cl)c2C)n(C)c1=O | inactive: 19.5%
CC(C)NC(=O)Cn1c(SCC(=O)NC2CCCC2)nc2ccccc21 | inactive: -20.9%
COc1ccc2c(c1)C1(Nc3ccccc3-c3nc4ccccc4n31)C(=O)N2C (stereo unspecified) | inactive: -40%
CC(C)[C@H](NC(=O)N1CCn2c1nc1ccccc12)C(=O)NC1CC1 | inactive: -20.2%
COc1cccc(NC(=O)[C@H](CC(C)C)NC(=O)N2CCn3c2nc2ccccc23)c1 | inactive: -61.5%
CCC(C(=O)NC1CCCCC1)n1c(SCc2cccc(C)c2)nc2ccncc21 (stereo unspecified) | inactive: 30.9%
c1ccc(Cn2c(CNc3nc4ccccc4n3CCN3CCOCC3)nc3ccccc32)cc1 | inactive: 6.1%
O=C(Cn1cnc2ccccc21)Nc1ccc(SC(F)F)cc1 | inactive: -14.1%
CC(NC(=O)Cn1cnc2c1c(=O)n(C)c(=O)n2C)c1ccccc1 (stereo unspecified) | inactive: 12.3%
O=C(C1CCCN(S(=O)(=O)c2cccnc2)C1)N1CCn2c1nc1ccccc12 (stereo unspecified) | inactive: -67.9%
COc1ccc(/C=N/NC(=O)Cn2cnc3c2c(=O)n(C)c(=O)n3C)c(OC)c1OC | inactive: 19.3%
O=C(Cn1cnc2ccccc21)Nc1ccc(F)c(F)c1 | inactive: -11.5%
COC(=O)c1cccc(NC(=O)Cn2cnc3c2c(=O)n(C)c(=O)n3C)c1 | inactive: 5.2%
O=C(COc1ccccc1)OC1CN2CCC1CC2 (stereo unspecified) | inactive: -22.4%
O=C(Nc1ccncc1[N+](=O)[O-])c1ccc([N+](=O)[O-])cc1[N+](=O)[O-] | inactive: 3.1%
COc1cccc(CNc2nc3ccccc3n2CCN2CCCCC2)c1OC | inactive: -5.9%
O=C(OC1CN2CCC1CC2)c1cccc([N+](=O)[O-])c1 (stereo unspecified) | inactive: -17.7%

SMILES | inhibition
CCC(C)[C@H](NC(=O)N1CCn2c1nc1ccccc12)C(=O)NCC1CCCO1 (stereo partly specified) | inactive: -22.2%
CCCCOc1ccccc1NC(=O)Cn1c(-c2nonc2N)nc2ccccc21 | inactive: -158%
CCc1cccc(C)c1N(C(=O)Cn1c(=O)[nH]c2ccccc21)C(C)COC (stereo unspecified) | inactive: -32.4%
CCN(CC)CCn1c(NC(=O)c2ccc(C(F)(F)F)cc2)nc2ccccc21 | inactive: -42.4%
Cn1c(=O)c2c(nc(CN3CCOCC3)n2CCN2CCOCC2)n(C)c1=O | inactive: -37.5%
O=S(=O)(Nc1ccc2c(c1)nc1n2CCN(Cc2ccccc2)C1)c1ccc(F)cc1 | inactive: -14.7%
CC1Cc2ccccc2N1C(=O)Cn1cnc2ccccc21 (stereo unspecified) | inactive: -7.9%
CCOC(=O)c1ccc(NC(=O)C(C)(CCl)SC)cc1 (stereo unspecified) | inactive: 3%
O=C(Cn1c(-c2cscn2)nc2ccccc21)Nc1cc(F)ccc1F | inactive: 27.9%
Cc1ccc2c(c1)C1CN(C)CCC1N2C(=O)COc1ccc(S(=O)(=O)N2CCOCC2)cc1 (stereo unspecified) | inactive: -38.4%
COc1ccc(CCNC(=O)[C@H](CC(C)C)NC(=O)N2CCn3c2nc2ccccc23)cc1OC | inactive: -19%
CCC(NC(=O)Cn1cnc2c(=O)n(C)c(=O)n(C)c21)c1ccccc1 (stereo unspecified) | inactive: -30.8%
O=C1Cn2c(nc3ccccc32)-c2ccccc2N1 | inactive: -24.7%
CCN(CC)C(=O)Cn1cnc2c1c(=O)n(C)c(=O)n2C | inactive: 9.7%
CC(C)N(C(=O)Cn1c(Cl)nc2ccccc21)C(C)C | inactive: -19.2%
CCc1ccc(NC(=O)Cn2c(SC)nc3ccccc32)cc1 | inactive: -16.1%
CCC(C)N(CC(C)C)C(=S)SC(NC(C)=O)C(Cl)(Cl)Cl (stereo unspecified) | inactive: -50.2%
CC1CC(C)CN(C(=O)Cn2c(SCC(=O)N3CCc4ccccc4C3)nc3ccccc32)C1 (stereo unspecified) | inactive: 5.3%
CCN1C(=O)C2(Nc3ccccc3-c3nc4ccccc4n32)c2cc(OC)ccc21 (stereo unspecified) | inactive: 9.8%
Cc1nc2ccccc2n1CC(=O)N/N=C\c1ccccn1 | inactive: -17.7%
CC(C)NC(=O)Cn1c(SCC(=O)N2CCCc3ccccc32)nc2ccccc21 | inactive: 9.9%
Cc1ccc(NC(=O)CCC(=O)N/N=C/C=C/c2ccccc2)cc1 | inactive: 12.1%
Cc1ccc2c(c1)[C@@H]1CN(C)CC[C@@H]1N2C(=O)Nc1cccc(C(F)(F)F)c1 | inactive: -38%

SMILES | inhibition
CCOC(=O)c1ccccc1NC(=O)CSc1nc2ccccc2n1CC(=O)N1CCCC1 | inactive: 21.3%
Cc1ccc(-c2csc(NC(=O)Cn3cnc4c3c(=O)n(C)c(=O)n4C)n2)cc1C | inactive: -1.1%
CSc1nc2ccccc2n1CC(=O)Nc1ccccc1 | inactive: -31.5%
O=C(Nc1ccc2c(c1)nc1n2CCN(C2CCCCC2)C1)NC1CCCCC1 | inactive: 13.7%
Cc1nc2ccccc2n1CCN1CCOCC1 | inactive: -25.7%
Cc1ccc2c(c1)C1CN(C)CCC1N2C(=O)Cc1cccs1 (stereo unspecified) | inactive: 33.8%
CN1C(=O)C2(Nc3ccccc3-c3nc4ccccc4n32)c2ccccc21 (stereo unspecified) | inactive: 5%
CCC(C)[C@H](NC(=O)N1CCn2c1nc1ccccc12)C(=O)NCc1ccccc1 (stereo partly specified) | inactive: -12.3%
Cc1ccc(NC(=O)Cn2cnc3ccccc32)cc1C | inactive: -17.6%
COc1ccc(N2C(=O)CC(n3cnc4ccccc43)C2=O)cc1 (stereo unspecified) | inactive: -9%
COc1ccccc1NC(=O)Cn1cnc2c1c(=O)n(C)c(=O)n2C | inactive: -20%
NC(=O)CS(=O)(=O)c1nc2ccccc2n1CC(=O)N1CCCCC1 | inactive: -12.3%
O=C(Cn1cnc2ccccc21)NC(c1ccccc1)c1ccccc1 | inactive: -27.9%
Cc1c2c(nc3ccccc13)SC(C(Cl)Cl)C2 (stereo unspecified) | inactive: -7.9%
O=C(OC1CN2CCC1CC2)C12CC3CC(CC(C3)C1)C2 (stereo unspecified) | inactive: -4.2%
O=C1C2CCCCC2C(=O)N1c1ccc(NC2CCN(Cc3ccccc3)CC2)c([N+](=O)[O-])c1 (stereo unspecified) | inactive: -6.4%
CCn1cc(C(=O)N2CCn3c(nc4ccccc43)C2)c(=O)c2ccc(C)nc21 | inactive: -31.7%
Cn1c(=O)c2c(nc(Cl)n2CC(=O)N2CCCCC2)n(C)c1=O | inactive: -14.4%
Cc1cc(=O)[nH]c(N[N+](=O)[O-])n1 | inactive: 13.1%
c1ccc2c(c1)ncn2CCN1CCCCC1 | inactive: -19.3%
Cn1c(=O)c2c(ncn2CC(=O)Nc2nccs2)n(C)c1=O | inactive: 20%
C=CCSc1nnc(NC(=O)Cn2cnc3c2c(=O)n(C)c(=O)n3C)s1 | inactive: -10.4%
